{"sequences": {"note": "Chains of the proteins cited; added tags and fusions are not shown.", "UniProt P25023, whole entry": "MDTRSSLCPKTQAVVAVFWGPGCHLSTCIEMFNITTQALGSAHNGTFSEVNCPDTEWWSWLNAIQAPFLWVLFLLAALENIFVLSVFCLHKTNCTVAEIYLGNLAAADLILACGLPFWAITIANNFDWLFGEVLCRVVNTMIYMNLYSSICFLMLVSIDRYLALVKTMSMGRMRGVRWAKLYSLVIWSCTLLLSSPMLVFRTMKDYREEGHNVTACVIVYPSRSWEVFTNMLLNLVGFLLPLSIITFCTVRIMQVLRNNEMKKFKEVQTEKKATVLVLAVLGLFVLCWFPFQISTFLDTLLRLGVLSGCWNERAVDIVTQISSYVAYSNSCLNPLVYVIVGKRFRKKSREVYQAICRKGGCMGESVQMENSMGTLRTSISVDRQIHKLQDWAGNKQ"}, "source": "patent US5610140A", "about": "“Bradykinin receptor antagonists with neurokinin receptor blocking activity” (priority 1994, dated 1997)", "biological_target": "Bradykinin 2 (BK2) receptor (Rattus norvegicus, UniProt P25023)", "settings": "rat uterus, washed at 10 minute intervals for 40 minutes", "data": [{"compound": "CC(C)C[C@H](NC(=O)[C@@H](Cc1ccccc1)NC(=O)[C@H](CS)NC(=O)[C@H](Cc1ccccc1)NC(=O)CNC(=O)[C@@H]1C[C@@H](O)CN1C(=O)[C@@H]1CCCN1C(=O)[C@H](CCCNC(=N)N)NC(=O)[C@H](N)CCCNC(=N)N)C(=O)N[C@@H](CCCNC(=N)N)C(=O)O", "note": "[CP-0126, D-Arg-Arg-Pro-Hyp-Gly-Phe-Cys-D-Phe-Leu-Arg, reference compound]", "values": [{"measurement": "BK2 % Recovery (wash-off)", "result": 100, "unit": "%"}]}]}
